# Yeast mating assay 1: variants of the scFv Ab-14

Values reported by Engelhart et al. 2022, doi:10.1038/s41597-022-01779-4 (FLAb copy).

Binding partner: SARS-CoV-2 spike HR2 peptide, sequence PDVDLGDISGINAS.

Parent: Ab-14, a human scFv built as VH, the linker GGGGSGGGGSGGGGS, VL. Only the CDRs of the heavy chain vary.
VH: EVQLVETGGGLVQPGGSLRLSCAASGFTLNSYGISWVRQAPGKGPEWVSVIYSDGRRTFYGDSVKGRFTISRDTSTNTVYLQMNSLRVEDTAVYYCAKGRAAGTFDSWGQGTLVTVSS
VL: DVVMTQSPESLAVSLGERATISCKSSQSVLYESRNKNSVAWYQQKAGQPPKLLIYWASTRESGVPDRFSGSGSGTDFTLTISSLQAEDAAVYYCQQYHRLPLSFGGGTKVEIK

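The starting antibody came from a phage panning campaign against this peptide. Library AAYL49 holds single substitutions and randomly drawn double and triple substitutions in the CDRs. AlphaSeq pools MATa yeast showing the antibodies with MATalpha yeast showing the peptide. Mating (16 h, 30 °C) was followed by selection of diploids and sequencing of their barcodes. Each replicate has its own calibration line, from reference interactions of the BCL2 family. Each pool was mated in three replicate cultures.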

The whole VH of each variant is written out. The read-out is the apparent dissociation constant on a log10 scale (nM): the lower, the stronger. A mean of the replicates is given; it leaves out those without a signal. Where no diploid with the target was found in that replicate, the entry reads "ND": below detection, most likely a poor binder, though not proof of it. Three control strains display no target. For library AAYL49, 15% of the pairings with them gave a signal, with a median of 4.06 and one signal in twenty below 2.83, so weak values seen in few replicates may be background. Also given: how often the same scFv was detected with the empty control strains, with their mean in brackets.

VH,"replicates, log10 nM","log10 Kd (nM), mean",empty controls
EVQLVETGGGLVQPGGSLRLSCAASGFTLNDYGISWVRQAPGKGPEWVSVIYSDGRRTFYGMSVKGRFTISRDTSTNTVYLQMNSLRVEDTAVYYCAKGRARGTFDSWGQGTLVTVSS,ND ND ND,ND,2/9 (4.43)
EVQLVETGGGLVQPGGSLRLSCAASGFTLNSYVIIWVRQAPGKGPEWVSKIYSDGRRTFYGDSVKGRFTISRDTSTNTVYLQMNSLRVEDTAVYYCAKGRAAGTFDSWGQGTLVTVSS,ND 4.09 ND,4.09,3/9 (3.46)
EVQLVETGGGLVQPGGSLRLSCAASGFTANSYGISWVRQAPGKGPEWVSVIYSDPRRTFYTDSVKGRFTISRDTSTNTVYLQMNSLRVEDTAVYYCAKGRAAGTFDSWGQGTLVTVSS,4.75 3.90 5.37,4.67,5/9 (4.34)
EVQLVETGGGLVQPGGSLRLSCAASGFTLNSYGISWVRQAPGKGPEWVSVIFDDGRRTFYGSSVKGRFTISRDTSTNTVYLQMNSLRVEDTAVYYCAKGRAAGTFDSWGQGTLVTVSS,4.55 ND ND,4.55,3/9 (3.76)
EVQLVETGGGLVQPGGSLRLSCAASGFTLNSWGISWVRQAPGKGPEWVSVIYSDGRRTFYGDSPYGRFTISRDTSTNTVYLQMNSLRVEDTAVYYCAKGRAAGTFDSWGQGTLVTVSS,ND 3.56 3.99,3.78,0/9
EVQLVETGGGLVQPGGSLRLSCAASAFTLNSYGISWVRQAPGKGPEWVSVIYSDRRRTFYGLSVKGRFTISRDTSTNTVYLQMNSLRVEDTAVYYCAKGRAAGTFDSWGQGTLVTVSS,2.65 2.79 ND,2.72,0/9
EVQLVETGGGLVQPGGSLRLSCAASGFNLNSYGISWVRQAPGKGPEWVSVIYSDGSRTFLGDSVKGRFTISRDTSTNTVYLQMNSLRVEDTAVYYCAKGRAAGTFDSWGQGTLVTVSS,1.61 3.55 2.64,2.60,1/9 (3.01)
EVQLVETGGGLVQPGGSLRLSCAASGFTLNSYGISWVRQAPGKGPEWVSVIYSDGRRTNYGDSVKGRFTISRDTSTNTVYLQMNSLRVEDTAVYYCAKGRALGTFDEWGQGTLVTVSS,ND 3.50 ND,3.50,2/9 (4.23)
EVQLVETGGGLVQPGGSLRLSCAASGFTLNSYGISWVRQAPGKGPEWVSVCYSDGRRTFYGDSVKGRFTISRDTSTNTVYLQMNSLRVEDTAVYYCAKGRAWGTFDSWGQGTLVTVSS,ND 3.90 ND,3.90,0/9
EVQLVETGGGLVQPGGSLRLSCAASGFTLNSYGISWVRQAPGKGPEWVSVIYSDGGRTFYDDSIKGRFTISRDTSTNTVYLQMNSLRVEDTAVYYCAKGRAAGTFDSWGQGTLVTVSS,3.11 2.77 3.24,3.04,3/9 (4.32)
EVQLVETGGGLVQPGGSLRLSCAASEFTLNSWGISWVRQAPGKGPEWVSVIYSDGRWTFYGDSVKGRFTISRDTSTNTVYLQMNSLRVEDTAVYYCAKGRAAGTFDSWGQGTLVTVSS,ND 4.66 ND,4.66,2/9 (4.17)
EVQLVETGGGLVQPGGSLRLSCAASGFTLNSYGRSWVRQAPGKGPEWVSVIYSDGRRTKYGDSVDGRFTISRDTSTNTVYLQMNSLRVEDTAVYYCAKGRAAGTFDSWGQGTLVTVSS,ND ND ND,ND,4/9 (4.70)
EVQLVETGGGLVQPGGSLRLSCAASDFTLNSYGIEWVRQAPGKGPEWVSVIYSDGRRTFYGDSVKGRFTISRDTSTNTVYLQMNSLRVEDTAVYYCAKGNAAGTFDSWGQGTLVTVSS,ND ND ND,ND,2/9 (4.22)
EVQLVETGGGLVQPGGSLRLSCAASGFTLNSYGISWVRQAPGKGPEWVSVIYSDGRRTFWCDSVKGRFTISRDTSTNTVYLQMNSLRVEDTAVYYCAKGRAAGTFDSWGQGTLVTVSS,ND ND ND,ND,1/9 (4.43)
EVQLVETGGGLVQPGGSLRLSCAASGITLNSYGISWVRQAPGKGPEWVSVNYKDGRRTFYGDSVKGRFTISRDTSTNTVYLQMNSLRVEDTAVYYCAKGRAAGTFDSWGQGTLVTVSS,ND 4.87 ND,4.87,3/9 (3.89)
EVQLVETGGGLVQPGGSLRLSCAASGHTLNSYGISWVRQAPGKGPEWVSVIYSDGRRTSYGDSNKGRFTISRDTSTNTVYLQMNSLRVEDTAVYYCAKGRAAGTFDSWGQGTLVTVSS,5.78 ND ND,5.78,1/9 (4.05)
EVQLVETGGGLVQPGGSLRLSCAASGFTLNSYGISWVRQAPGKGPEWVSVIYSDGSRTFYGVSVKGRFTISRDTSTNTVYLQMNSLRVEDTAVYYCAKGRHAGTFDSWGQGTLVTVSS,4.38 ND ND,4.38,1/9 (3.95)
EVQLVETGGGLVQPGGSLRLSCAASGFTLNSYGISWVRQAPGKGPEWVSVIYLDGRRTFYGESVKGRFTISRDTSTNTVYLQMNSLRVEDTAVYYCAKGRARGTFDSWGQGTLVTVSS,ND ND ND,ND,1/9 (3.83)
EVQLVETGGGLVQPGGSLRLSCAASGFMLNSYGISWVRQAPGKGPEWVSVIYSDGRRTFYGDSVKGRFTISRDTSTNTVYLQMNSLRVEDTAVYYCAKGRATGTFDSWGQGTLVTVSS,ND ND ND,ND,0/9
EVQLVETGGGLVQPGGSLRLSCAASGFTLNSYGISWVRQAPGKGPEWVSVNYSDGRRTFYQDSVKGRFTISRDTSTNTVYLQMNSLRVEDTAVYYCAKGWAAGTFDSWGQGTLVTVSS,ND 3.34 ND,3.34,1/9 (3.55)
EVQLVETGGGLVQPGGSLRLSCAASGFTLNSYGISWVRQAPGKGPEWVSVIYSDGRRTFYGDSPKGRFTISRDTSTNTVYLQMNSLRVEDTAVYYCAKGRAAGTWQSWGQGTLVTVSS,3.70 4.20 ND,3.95,2/9 (3.25)
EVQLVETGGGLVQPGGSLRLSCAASGFTLNSYGNSWVRQAPGKGPEWVSWIYSDGRRTWYGDSVKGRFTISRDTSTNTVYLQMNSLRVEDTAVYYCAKGRAAGTFDSWGQGTLVTVSS,ND 3.35 ND,3.35,4/9 (4.05)
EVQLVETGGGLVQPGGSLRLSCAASGFTLNSYGISWVRQAPGKGPEWVSKIYKDGRRTFYGDSVKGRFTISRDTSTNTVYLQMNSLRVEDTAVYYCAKGRAAGTFDSWGQGTLVTVSS,4.72 ND 6.39,5.56,4/9 (4.86)
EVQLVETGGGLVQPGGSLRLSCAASGFTLNSYGISWVRQAPGKGPEWVSVIYSDGRRTFYGMSSKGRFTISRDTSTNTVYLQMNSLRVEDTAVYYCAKGRWAGTFDSWGQGTLVTVSS,ND ND ND,ND,0/9
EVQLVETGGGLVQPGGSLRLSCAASGFTLNSYGISWVRQAPGKGPEWVSVIYSDGRRVFYGDSVKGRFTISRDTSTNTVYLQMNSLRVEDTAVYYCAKGRADFTFDSWGQGTLVTVSS,1.97 2.53 ND,2.25,2/9 (3.84)
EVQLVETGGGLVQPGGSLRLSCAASGFTLNSYGISWVRQAPGKGPEWVSVIYSDGRRTFYRDSVWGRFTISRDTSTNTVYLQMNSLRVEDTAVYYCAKGRAAGTFDSWGQGTLVTVSS,2.81 1.79 2.72,2.44,1/9 (3.38)

A selection of 2 entries from above:

VH,"replicates, log10 nM","log10 Kd (nM), mean",empty controls
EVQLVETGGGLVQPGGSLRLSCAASGFTLNSYGISWVRQAPGKGPEWVSVIYSDGGRTFYDDSIKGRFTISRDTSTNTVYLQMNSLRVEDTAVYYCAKGRAAGTFDSWGQGTLVTVSS,3.11 2.77 3.24,3.04,3/9 (4.32)
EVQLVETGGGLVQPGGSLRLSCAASGFTLNSYGISWVRQAPGKGPEWVSVIYSDGRRTFYGDSPKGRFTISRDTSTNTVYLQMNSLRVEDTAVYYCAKGRAAGTWQSWGQGTLVTVSS,3.70 4.20 ND,3.95,2/9 (3.25)

In this assay the parent's reference entry averaged 0.65; its copy inside this library read 4.11 (one replicate of three).